Columns and labels:
[1] = test system: C[C@@H](O)[C@H]1C(=O)N2C(C(=O)O)=C(SCCNC=N)C[C@H]12; test: (§1) Activity of Pseudomonas aeruginosa VIM-1 beta-lactamase
Procedure, shortened: (§2)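 GST-fused VIM-1 lacking signal peptide, purified, dialyzed in 50 mM HEPES pH 7.5 with 50 μM ZnSO4. Beta-lactam hydrolysis followed spectrophotometrically at 25°C in 50 mM HEPES pH 7.5, 50 μM ZnSO4, 20 μg/ml BSA.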

[2] = test system: CO/N=C(\C(=O)N[C@@H]1C(=O)N2C(C(=O)[O-])=C(C[N+]3(C)CCCC3)CS[C@H]12)c1csc(N)n1; test: as §1; procedure, shortened: as §2
[3] = test system: CO/N=C(\C(=O)N[C@@H]1C(=O)N2C(C(=O)O)=C(COC(C)=O)CS[C@H]12)c1csc(N)n1; test: (§3) Ratio of Kcat to Km for Pseudomonas aeruginosa VIM-1 beta-lactamase; procedure, shortened: as §2
[4] = test system: C[C@@H](O)[C@H]1C(=O)N2C(C(=O)O)=C(SCCNC=N)C[C@H]12; test: as §3; procedure, shortened: as §2
[5] = test system: CO/N=C(\C(=O)N[C@@H]1C(=O)N2C(C(=O)[O-])=C(C[N+]3(C)CCCC3)CS[C@H]12)c1csc(N)n1; test: as §3; procedure, shortened: as §2
[6] = test system: C[C@@H](O)[C@H]1C(=O)N2C(C(=O)O)=C(SCCNC=N)C[C@H]12; settings: Pseudomonas aeruginosa
[7] = test system: CO/N=C(\C(=O)N[C@@H]1C(=O)N2C(C(=O)[O-])=C(C[N+]3(C)CCCC3)CS[C@H]12)c1csc(N)n1; settings: Pseudomonas aeruginosa
[8] = test system: C[C@@H](O)[C@H]1C(=O)N2C(C(=O)O)=C(SCCNC=N)C[C@H]12; settings: Pseudomonas aeruginosa; remark: listed apart in the source
[9] = test system: CO/N=C(\C(=O)N[C@@H]1C(=O)N2C(C(=O)[O-])=C(C[N+]3(C)CCCC3)CS[C@H]12)c1csc(N)n1; settings: Pseudomonas aeruginosa; remark: listed apart in the source

| Substance | Km [1] | kcat [1] | Km [2] | kcat [2] | kcat/Km [3] | kcat/Km [4] | kcat/Km [5] | kcat/Km [6] | kcat/Km [7] | Km [8] | kcat [8] | Km [9] | kcat [9] |
| --- | --- | --- | --- | --- | --- | --- | --- | --- | --- | --- | --- | --- | --- |
| Beta-lactamase VIM-1 (Pseudomonas aeruginosa) (from UniProt Q9XAY4) | 4 µM | 3.4 s⁻¹ | 337 µM | 119 s⁻¹ | 718000 M⁻¹ s⁻¹ | 8.38 M⁻¹ s⁻¹ | 3.5 M⁻¹ s⁻¹ |  |  |  |  |  |  |
| Class B carbapenemase VIM-13 (Pseudomonas aeruginosa) (from UniProt Q2HY42) |  |  |  |  |  |  |  | 2.92 M⁻¹ s⁻¹ | 3.3 M⁻¹ s⁻¹ | 18.5 µM | 54 s⁻¹ | 1870 µM | 61 s⁻¹ |
